According to patent US20110144018A1, “AGENT FOR PROPHYLAXIS OF REFLEX SYMPATHETIC DYSTROPHY AFTER CEREBRAL APOPLEXY” (priority 2006, published 2011):

Tests used:
[1] = in vivo; cited from earlier work
[2] = test system: patients with hemiplegia attributed to cerebrovascular disease (stroke), post-stroke RSD (shoulder-hand syndrome); parameters: species or system human; conditions: in vivo
Text: Test subjects were 33 patients with hemiplegia attributed to cerebrovascular disease (stroke) at Brunnstrom stage III or lower in either the upper limb or a finger on admission. Patients already developing RSD (shoulder-hand syndrome) on admission and patients with pain in the shoulder joint or swollen paralyzed limbs were excluded from the test. To 12 of these 33 test subjects, 20 units of elcatonin (Elcitonin Injection 20S; Asahi-Kasei Pharma; hereinafter, referred to as EL) were intramuscularly administered once a week immediately after admission (EL administration group). On the other hand, 21 test subjects were classified into a rehabilitation alone group (control group) and compared with the EL administration group. Physical therapy and therapeutic exercise, occupational therapy, and the management of the paralyzed limbs were performed thoroughly in all the cases. […] EL administration was initiated 11 to 59 days after an attack of stroke (25.8 days on average) and continued until 5 months after the attack of stroke. The same observation period was applied to the control group. […]
Activities of daily living (ADL) were evaluated on the basis of the Barthel Index (BI) and the range of motion (ROM) of shoulder joint. […]

[3] = Dose relative to drip infusion in vein, from serum concentration; format: in vivo; conditions: intramuscular versus drip infusion in vein; company data

1-butyric acid-7-(L-2-aminobutyric acid)-26-L-aspartic acid-27-L-valine-29-L-alanine-calcitonin [EL]
Maximum serum concentration compared with 200 units transnasal salmon calcitonin (37 pg/mL) [1]: almost the same concentration
Side effects during the test period [2]: no significant or serious side effect
Intramuscular dose relative to drip infusion in vein for equal maximum serum concentration [3]: approximately 1.5 times
